Test results as given in patent US20040018482A1, “Loading and unloading of permeating protectants for cell, tissue, and organ cryopreservation by vitrification” (priority 1997, published 2004).

Conditions: maximum freeze dehydrated solution; Tg estimated as temperature of detectable onset of ice melting endotherm

For bovine serum albumin [BSA], which “vitrification temperature Tg” value is on record?
Its value is −20 °C.
